Data published in patent publication US20060270629A1, “Methanocarba cycloalkyl nucleoside analogues” (Govt of the U.S.A., represented by the Secretary, Dept of …, priority 2000, published 2006).

By UniProt entry, the sequences of proteins in these tests, tags left out.
UniProt P0DMS8, whole entry: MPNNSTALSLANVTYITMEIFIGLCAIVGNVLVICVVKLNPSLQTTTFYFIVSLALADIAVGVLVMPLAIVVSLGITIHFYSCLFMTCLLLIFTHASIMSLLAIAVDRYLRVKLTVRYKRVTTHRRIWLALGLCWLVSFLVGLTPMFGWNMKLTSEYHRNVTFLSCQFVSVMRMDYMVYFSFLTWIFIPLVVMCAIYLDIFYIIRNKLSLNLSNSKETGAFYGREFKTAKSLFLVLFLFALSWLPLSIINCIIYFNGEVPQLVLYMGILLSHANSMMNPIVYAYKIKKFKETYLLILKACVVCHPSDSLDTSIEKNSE

Molecular target: cloned hA3AR (Homo sapiens, UniProt P0DMS8)
Assay: Stimulation of [35S]GTPγS binding, CHO cell membranes expressing cloned hA3AR

## CCNC(=O)[C@H]1O[C@@H](n2cnc3c(N)ncnc32)[C@H](O)[C@@H]1O [NECA, 5′-N-ethyluronamidoadenosine, reference compound]
  agonist efficacy at human A3 receptors: full A3 agonists
  cloned hA3AR % Maximal Stimulation: 100%
